## Apparent affinities of Ab-14 variants for a coronavirus HR2 peptide

Antigen: PDVDLGDISGINAS, a 14-residue peptide of the SARS-CoV-2 spike HR2 region.

Parent scFv Ab-14: VH joined to VL by a 15-residue (Gly4Ser)3 linker. Changes lie in the heavy chain CDRs alone.
VH: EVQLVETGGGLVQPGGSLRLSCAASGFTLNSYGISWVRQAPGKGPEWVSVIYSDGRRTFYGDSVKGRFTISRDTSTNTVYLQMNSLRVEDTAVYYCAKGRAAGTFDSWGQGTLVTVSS
VL: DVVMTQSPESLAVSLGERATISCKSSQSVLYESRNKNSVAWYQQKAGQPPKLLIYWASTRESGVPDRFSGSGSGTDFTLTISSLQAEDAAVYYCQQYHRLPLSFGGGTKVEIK

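Phage display of a naive human antibody library on the peptide gave the parent. Designed CDR sequences, proposed from the first random library and measured here. Several design methods are mixed in this list. The assay is AlphaSeq: two haploid yeast populations carry antibody and antigen on their surface. Binding brings cells together so that they mate, and sequencing counts the barcode pairs among the diploids. The ratio of observed to expected reads was calibrated, replicate by replicate, on BCL2-family standards whose Kd was known from biolayer interferometry. Each pool was mated in six replicate cultures.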

Each variant is given by its three heavy chain CDRs, as the data file delimits them; those of the parent are GFTLNSYGIS, VIYSDGRRTFYGDSVK, GRAAGTFDS. Variants here have at most six changes. Values are log10 of the apparent Kd in nM; lower means stronger binding. The mean shown is taken over the replicates in which the pair was detected. An entry "no signal" has no value in the source: the pair was not observed among the diploids in any replicate. This suggests poor binding but is not conclusive.

- GFELNSYGIS | VIYSDGRRTFYGDSVK | GSQAGTFDS: 0.72 (6 of 6 replicates; controls 0 of 18)
- GFDLNSYGIS | VIYSDGRRTFYGDSVK | GRLAGTFES: 0.51 (6 of 6 replicates; controls 0 of 18)
- GFTLNSYGIS | VIYSDGQRTFYGDSVK | GRVAGTFDS: 2.28 (1 of 6 replicates; controls 0 of 18)
- GFTLNSYGIS | VIYSDGRRTFYVDDVK | GEAAGTFKS: 2.56 (4 of 6 replicates; controls 0 of 18)
- GFTLNEYGIS | VIYSDGRRTFYGDSVK | GQAAGTFDV: 0.47 (12 of 12 replicates; controls 1 of 36)
- GFTLNSYGIS | VIYADGRRTFYGDSVK | GEAAGTFDV: 0.05 (6 of 6 replicates; controls 0 of 18)
- GFVLNNYGIS | VIYADGRRTFYGDSVK | GRAAGTFDS: 0.51 (6 of 6 replicates; controls 1 of 18)
- GFELNSYGIS | VIYADGRRTFYGDSVK | GKAAGTFDG: 0.83 (6 of 6 replicates; controls 0 of 18)
- GFTLNSYGIS | VIYSDGRRTFYGDEVR | GREAGTFDS: 1.50 (5 of 6 replicates; controls 1 of 18)
- GFALNSYGIS | VIYSDGRRTFYKDSVK | GQLAGTFDS: 0.32 (6 of 6 replicates; controls 0 of 18)
- GFHLNDYGIS | VIYSDGRRTFYIDSVK | GRHAGTFDS: 1.74 (6 of 6 replicates; controls 0 of 18)
- GFTLSSYGIS | VIYSDGRRTFYDDSVK | GRVAGTFDS: 0.99 (6 of 6 replicates; controls 0 of 18)
- GFTLNSYGIS | VIYSDGRRTFYDSSVK | GQLAGTFDS: 1.70 (6 of 6 replicates; controls 0 of 18)
- GFDLNTYGIS | VIYSDGRRTMYGDSVK | GRQAGTFDS: 0.03 (6 of 6 replicates; controls 0 of 18)
- GFSLNSYGIS | VIYSDGRRTFYMDSVK | GNVAGTFDS: 0.55 (6 of 6 replicates; controls 0 of 18)
- GFTLNSYGIS | VIYSDGKRTFYSDRVK | GKAAGTFDT: 1.08 (6 of 6 replicates; controls 1 of 18)
- PFSLNSYGIS | VIYSDGRRTFYGDSVK | GKTAGTFDS: no signal (0 of 6 replicates; controls 0 of 18)
- GFTLNDPGIS | VPYSDGRRTQYIDSVK | GRAAGLFDS: no signal (0 of 6 replicates; controls 0 of 18)
- FFTLNEYGIS | VIYSDGRRTFYTDSVK | GRFAGTFDS: 1.56 (1 of 6 replicates; controls 0 of 18)
- SFDLNSYGIS | VIYSDGRRTFYADSVK | GRTAGTFDS: -0.37 (6 of 6 replicates; controls 2 of 18)
- GFTLNSYGIS | VIYSDGRRTFYGDSVK | ERAAATFDS: no signal (0 of 6 replicates; controls 0 of 18)
- GFTLNSYGIS | VIYSDGRRTFYGDFVK | GRAAGRFDS: no signal (0 of 6 replicates; controls 0 of 18)
- GFTLNSYGIS | VIYSDGRRTFYADDVK | GKNAGTFDS: 0.80 (6 of 6 replicates; controls 0 of 18)
- GFNLNDYGIS | VIYSDGRRTFYGDSVK | GTAAGTFDS: 0.72 (6 of 6 replicates; controls 0 of 18)
- GFTLNDYGIS | VIYSDGRRTFYGDSVK | GRIAGTFDT: 0.32 (6 of 6 replicates; controls 0 of 18)
- QFTLNSYGIS | VIYSDGRRTSYGDSVK | GSAAGTFDS: 1.76 (2 of 6 replicates; controls 0 of 18)
- GFTLNSYGIS | VIYADGRRTFYGDSVK | GRAADTNDS: no signal (0 of 6 replicates; controls 0 of 18)
- GFTLNSYGIS | VIYSDGMRTFYSDSVK | GLTAGTFDS: 0.59 (6 of 6 replicates; controls 0 of 18)
- GFTLNSYGIS | VIYADGRRTFYGDEVK | GRAAGMFDS: no signal (0 of 6 replicates; controls 0 of 18)
- GFTLNSYGIS | VIYSDGRRTFYGDSVK | GEASGTFLS: no signal (0 of 6 replicates; controls 0 of 18)
- GFPLNDYGIS | VIYSDGRRTFYGDQVK | GGAAGTFDS: 1.18 (1 of 6 replicates; controls 0 of 18)
- GFWLNDYGIS | VIYSDGRRTFYIDTVK | GNAAGTFDS: 1.66 (2 of 6 replicates; controls 0 of 18)
- GFDLNEYGIS | VIYSDGRRTFYTDSVK | GRFAGTFDS: 1.02 (6 of 6 replicates; controls 0 of 18)
- GFDLNEYGIS | VIYADGRRTFYTDSVK | GVNAGTFDS: -0.56 (6 of 6 replicates; controls 0 of 18)
- KFSLESYGIS | VIYSDGRRTFYGDSVK | GRTAGTFDS: 1.43 (2 of 6 replicates; controls 0 of 18)
- GFTLNSYGIS | VIYSDGRRTFYDDSVK | GVLAGTFDS: 0.60 (6 of 6 replicates; controls 0 of 18)
- GFDLNSYGIS | VIYSDGQRTFYGDSVK | GNAAGTFDS: 0.57 (6 of 6 replicates; controls 0 of 18)
- GFTLNSYGIS | VIYSDGRRTFYGDSVK | GRAAGTFPL: no signal (0 of 6 replicates; controls 0 of 18)

Top 3 of the variants detected in all replicates, tightest first:

* GFDLNEYGIS | VIYADGRRTFYTDSVK | GVNAGTFDS: -0.56 (6 of 6 replicates; controls 0 of 18)
* SFDLNSYGIS | VIYSDGRRTFYADSVK | GRTAGTFDS: -0.37 (6 of 6 replicates; controls 2 of 18)
* GFDLNTYGIS | VIYSDGRRTMYGDSVK | GRQAGTFDS: 0.03 (6 of 6 replicates; controls 0 of 18)

The authors averaged sequences with at least three values out of six and counted those with two or fewer as poor binders. Three control strains display no target. For all heavy chain designs, 1% of the pairings with them gave a signal, with a median of 2.08 and one signal in twenty below 0.84, so weak values seen in few replicates may be background. Also given: how often the same scFv was detected with the empty control strains. A sequence measured in both rounds can read differently, since the two assays cover different ranges. A sequence that the file lists under several names has all its replicates pooled. Of ten entries with the parent sequence, four were seen in most replicates (averages 0.34 to 2.37), three in one and three in none, so single entries are noisy.

Values reported by Li et al. 2023, doi:10.1038/s41467-023-39022-2 (FLAb copy).